Consider 1 substance from patent US9303092B2, “Methamphetamine-like hapten compounds, linkers, carriers and compositions and uses thereof” (The Board of Trustees of the University of Arkansas, priority 2000, dated 2016).

One data set deals with mAb6H4. Nature of the data set: RIA binding specificity, relative potency to METH. Details: species or system mouse. The settings on record: RIA IC50 value for METH/RIA IC50 value for test ligand.
A further data set relates to discriminative stimulus. The note with it: (+)-methamphetamine trained rats; cited from earlier work.
Data set [1] can be described thus: (+)-Methamphetamine and (+)-amphetamine pharmacokinetic studies in serum and brain with and without mAb6H4. The note with it: Brain, 1-mol equivalent dose of mAb at 30 min.
The subject of the next data set is mAb4G9. Briefly: RIA binding specificity, relative potency to METH. The note with it: RIA IC50 value for METH/RIA IC50 value for test ligand. On the set-up: species or system mouse.
The subject of the next data set is mAb6H8. Briefly: RIA binding specificity, relative potency to METH. On the set-up: species or system mouse. The settings on record: RIA IC50 value for METH/RIA IC50 value for test ligand.

Regarding (+)-methamphetamine [(+)METH], the “Relative Potency to METH, mAb6H4” value with mAb6H4 came out at 1.00. Also, in the data set on discriminative stimulus, the “potency relative to cocaine” value is 10 times. Moreover, the “AUC38 min-[…] Treated” value in data set [1] worked out at 246 ng·h/g. Besides, the “Relative Potency to METH, mAb4G9” value in the data set on mAb4G9 came out at 1.00. Besides, the “Relative Potency to METH, mAb6H8” value in the data set with mAb6H8 is recorded as 1.00.
